Test results reported in PubChem BioAssay AID743266 (National Center for Advancing Translational Sciences (NCATS), 2014).
The list shows a part of the results, in another mix than the full data. Calls of active or inactive are those of the source. The call rests on the fitted dose curve; in most records, active means well fitted activation curve with a large enough effect; inconclusive means small, poorly fitted or top-dose-only effect, or another doubt; inactive means no such curve, though single readings can be large or run the other way.

Chains of the proteins cited; added tags and fusions are not shown. Lines headed by an entry give the natural chain unless they say otherwise; changes in a name come on top.
UniProt Q03431: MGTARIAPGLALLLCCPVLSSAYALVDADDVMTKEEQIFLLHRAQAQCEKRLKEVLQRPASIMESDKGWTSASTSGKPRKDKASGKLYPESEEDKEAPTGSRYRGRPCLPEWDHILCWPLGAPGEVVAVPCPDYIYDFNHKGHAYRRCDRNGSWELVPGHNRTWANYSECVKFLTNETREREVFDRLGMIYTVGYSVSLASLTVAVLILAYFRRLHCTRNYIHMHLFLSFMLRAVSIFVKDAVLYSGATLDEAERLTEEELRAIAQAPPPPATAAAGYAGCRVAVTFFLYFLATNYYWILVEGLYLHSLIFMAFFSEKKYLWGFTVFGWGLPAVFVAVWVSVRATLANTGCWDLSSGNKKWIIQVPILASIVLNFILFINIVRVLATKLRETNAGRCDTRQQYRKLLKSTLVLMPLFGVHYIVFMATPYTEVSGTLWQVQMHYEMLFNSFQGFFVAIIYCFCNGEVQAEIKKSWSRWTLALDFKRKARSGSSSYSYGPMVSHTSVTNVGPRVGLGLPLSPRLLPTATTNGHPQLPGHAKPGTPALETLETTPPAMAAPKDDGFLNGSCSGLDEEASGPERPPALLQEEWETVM

Each compound was assayed against Parathyroid hormone/parathyroid hormone-related peptide receptor (Homo sapiens) (UniProt Q03431) (assay: qHTS for PTHR1 Agonists: Primary Screen). Details: HEK293 GP2 PTHR1 cells, GloSensor cAMP luminescence, 1 h; activation: at 115 µM (top of the series) unless noted.
Further: nearly all actives have a fitted effect of over 55% in size.

Row | Compound | activation | outcome
1 | CN(C)C(=O)Oc1noc2ccccc12 | inactive | 
2 | O=P1(Nc2nc3ccc(Cl)cc3s2)COc2ccccc2O1 (stereo not drawn) | inactive: -1.78% | 
3 | CCOc1ccc(C2=NCC(CBr)S2)cc1 (stereo not drawn) | inactive: -0.817% | 
4 | CCc1cc(O)c([N+](=O)[O-])c(C)c1[N+](=O)[O-] | inactive: -25% | 
5 | CC(C)(C)C(=O)NC(Sc1ccccc1)C(Cl)(Cl)Cl (stereo not drawn) | inactive: -22.9% | 
6 | CC(=O)c1ccc(N2CC2c2ccncc2)cc1 (stereo not drawn) | inactive | 
7 | N#C/C(=C\c1ccc(N(CCBr)CCBr)cc1)C(N)=O | inactive: -14.7% | 
8 | COC(=O)C1(C)COP(=O)(NCc2ccccc2)OC1 (stereo not drawn) | inactive: -0.276% | 
9 | Cc1ccccc1CN(C)C(=O)COC(=O)C(O)(c1ccccc1)c1ccccc1 | inactive: -32.2% | 
10 | C[C@H]1OP(=O)(Oc2ccccc2)C[C@@H]2O[C@@H]21 (stereo partly drawn) | inactive | 
11 | C[C@@H]1C=CCP(=O)(Oc2ccccc2)O1 (stereo partly drawn) | inactive: -17.5% | 
12 | CC(=O)Nc1ccc([As](=O)(O)O)c(O)c1 | inactive | 
13 | CC(=O)Nc1ccc(Oc2c([N+](=O)[O-])cc([N+](=O)[O-])cc2[N+](=O)[O-])cc1 | inactive: -34% | 
14 | NC(=O)c1cc([N+](=O)[O-])cc([N+](=O)[O-])c1N | inactive: -4.68% | 
15 | CN(C(=O)Cc1ccc(Cl)c(Cl)c1)[C@H]1CCCC[C@H]1N1CCCC1 | inactive: -16.9% | 
16 | COc1ccccc1OP(=O)(Nc1ccc(C)cn1)Oc1ccccc1OC | inactive: -24.9% | 
17 | Cc1ccc(OP(=O)(Nc2nccs2)Oc2ccc(C)cc2)cc1 | inactive | 
18 | CN1CCCC(OC(=O)C(c2ccccc2)c2ccccc2)C1 (stereo not drawn) | inactive | 
19 | Clc1ccc(Cl)c(NC2=NCC(CBr)S2)c1 (stereo not drawn) | inactive: -16.5% | 
20 | Nc1cc(N)c2nonc2c1[N+](=O)[O-] | inactive | 
21 | CC(C)CC(=O)NC(Sc1ccc(Cl)cc1)C(Cl)(Cl)Cl (stereo not drawn) |  | inactive [at 57.5 µM]
22 | Oc1ccccc1CNc1ccccn1 | inactive | 

Row | Compound | activation | outcome
23 | O=C(NC(Sc1ccncn1)C(Cl)(Cl)Cl)c1ccccc1 (stereo not drawn) | inactive: -17.2% | 
24 | O=[N+]([O-])C1C(O)C(O)C([N+](=O)[O-])C(O)C1O (stereo not drawn) | inactive: -23.2% | 
25 | CC(=O)Nc1ccc([As](=O)(O)O)cc1 | inactive: -28.2% | 
26 | O=C(O)c1ccccc1[As](=O)(O)O | inactive | 
27 | CCCC1OP(N)(=O)OCC1CC (stereo not drawn) | inactive | 
28 | O=P(Nc1nc2ccc(Cl)cc2s1)(c1ccccc1)c1ccccc1 | inactive: -23.6% | 
29 | CN(C)P(=O)(N(C)C)n1c(Nc2ccccc2)nnc1-c1ccccc1 | inactive | 
30 | Cc1cc(SC(NC(=O)c2ccc(F)cc2)C(Cl)(Cl)Cl)ncn1 (stereo not drawn) | inactive | 
31 | CCOP(=O)(Nc1ccccc1)OCC |  | inactive [at 57.5 µM]
32 | CN(C(=O)Cc1ccc(Cl)c(Cl)c1)[C@H]1CCCC[C@@H]1N1CCCC1 | inactive: -24.3% | 
33 | Cc1ccc(NP(=O)(Oc2ccccc2F)Oc2ccccc2F)nc1 | inactive | 
34 | CCN(N=Nc1nonc1N)c1nonc1N | inactive: -15.2% | 
35 | Nc1cccc2ccc([As](=O)(O)O)cc12 | inactive: 8.63% | 
36 | O=P1(N(CCCl)CCCl)OCCCS1 (stereo not drawn) | inactive | 
37 | O=C(Nc1cc([As](=O)(O)O)ccc1O)c1ccccc1 | inactive | 
38 | CC(C)(C)C(=O)NC(Sc1ccncn1)C(Cl)(Cl)Cl (stereo not drawn) | inactive | 
39 | O=[N+]([O-])c1ncn(CCn2ncnc2[N+](=O)[O-])n1 | inactive: -22.6% | 
40 | COC(=O)C1(C)COP(=O)(Nc2ccccc2)OC1 (stereo not drawn) | inactive | 
41 | O=[N+]([O-])c1cccc(NC2=NCC(CBr)S2)c1 (stereo not drawn) | inactive | 
42 | O=C(O)CNc1ccc([As](=O)(O)O)cc1 | inactive: -2.69% | 
43 | COc1ccc(C2=NCC(CBr)S2)cc1 (stereo not drawn) | inactive | 
44 | CC(=O)N1C2C3N(C(C)=O)C1C1N(C(C)=O)C(C(N1C(C)=O)N3C(C)=O)N2C(C)=O |  | inactive [at 57.5 µM]

Row | Compound | activation | outcome
45 | O=[N+]([O-])c1cccc2n[nH]nc12 |  | inactive [at 57.5 µM]
46 | Cc1ccc(NP(=O)(Oc2ccccc2)Oc2ccccc2)nc1 | inactive: -16.1% | 
47 | O=[N+]([O-])c1cc([N+](=O)[O-])c(CCNc2ccccc2)c([N+](=O)[O-])c1 | inactive | 
48 | CCc1nc2c(n1)c1c(non1O)c1c2no[n+]1[O-] | inactive: -25.9% | 
49 | Nc1ccc([As](=O)(O)c2ccc(N)cc2)cc1 | inactive | 
50 | CCN(/C(=N/P(=O)(N1CCOCC1)N1CCOCC1)N1CCOCC1)c1ccc(OC)cc1 | inactive | 
51 | CC(C)c1nc(Nc2ccccc2)n(P(=O)(N(C)C)N(C)C)n1 | inactive | 
52 | CC(C)=N/N=C(\N)N[N+](=O)[O-] | inactive | 
53 | CN(C)C(=O)OCCc1n(C)cc[n+]1C | inactive | 
54 | CC1CCN(C(=O)Oc2c(Cl)cc(Cl)c3cccnc23)CC1 | inactive: -10.2% [at 57.5 µM] | 
55 | c1cc(-c2nn[nH]n2)ccc1-c1nn[nH]n1 | inactive: -18.6% | 
56 | COP1(=S)c2c(C)nn(CCC#N)c2N=C(c2ccc(F)cc2)N1C (stereo not drawn) | inactive: -10.8% [at 57.5 µM] | 
57 | COC(=O)C1(C)COP(=O)(N2CCCC2)OC1 (stereo not drawn) | inactive: -23.4% | 
58 | O=C(COc1ccccc1)OC1CN2CCC1CC2 (stereo not drawn) |  | inactive [at 57.5 µM]
59 | O=C(Nc1ccncc1[N+](=O)[O-])c1ccc([N+](=O)[O-])cc1[N+](=O)[O-] | inactive: -26.3% | 
60 | O=C(O)C(=O)c1ccc(N(CCCl)CCCl)cc1 | inactive | 
61 | CCOC(=O)c1ccc(NC(=O)C(C)(CCl)SC)cc1 (stereo not drawn) | inactive | 
62 | O=C(OC1CN2CCC1CC2)c1cccc([N+](=O)[O-])c1 (stereo not drawn) | inactive: -8.4% | 
63 | CSc1ccc(Nc2c([N+](=O)[O-])cc([N+](=O)[O-])cc2[N+](=O)[O-])cc1 | inactive | 
64 | CCC(C)N(CC(C)C)C(=S)SC(NC(C)=O)C(Cl)(Cl)Cl (stereo not drawn) | inactive: -8.15% [at 57.5 µM] | 
65 | CC1CCNP(=O)(N(CCCl)CCCl)O1 (stereo not drawn) | inactive: -22% | 
66 | O=C(O)C(O)c1ccc(N(CCCl)CCCl)cc1 (stereo not drawn) | inactive: -8.39% | 

Row | Compound | activation | outcome
67 | CCCCOc1ccc(C(=O)NCC2(N3CCCCC3)CCCCC2)cc1OC | inactive: -5.99% | 
68 | Cc1cc(SC(NC(=O)c2ccccc2)C(Cl)(Cl)Cl)nc(C(C)C)n1 (stereo not drawn) | inactive: -10.2% | 
69 | COP(=O)(OC)N1CC1c1ccccc1 (stereo not drawn) | inactive | 
70 | CCOC(=O)Nc1cccc([As](=O)(O)O)c1 | inactive | 
71 | O=[N+]([O-])c1ccc(Nc2ccc(Oc3ccc([N+](=O)[O-])cc3[N+](=O)[O-])cc2)c([N+](=O)[O-])c1 | inactive: -46.9% | 
72 | Cc1cc(SC(NC=O)C(Cl)(Cl)Cl)ncn1 (stereo not drawn) | inactive: -1.8% | 
73 | O=P(Nc1ccccn1)(c1cccc2ccccc12)c1cccc2ccccc12 | inactive: -3.29% | 
74 | O=[As](O)(c1ccc(O)cc1)c1ccccc1O | inactive: -26.8% | 
75 | C[As](=O)(O)c1cccc(C(=O)O)c1 | inactive | 
76 | O=[N+]([O-])c1ccc(-c2cc([N+](=O)[O-])c(O)c([N+](=O)[O-])c2)cc1 | inactive: -10.8% | 
77 | COc1cc(C(=O)NCC2(N3CCOCC3)CCCCC2)ccc1OCC(C)C | inactive: 9% | 
78 | Cc1ccc2nc3c(c(C)c2c1)CC(C(Cl)Cl)S3 (stereo not drawn) | inactive | 
79 | Cc1ccc(OP(=O)(Nc2ccc([N+](=O)[O-])cn2)Oc2ccc(C)cc2)cc1 | inactive: -2.03% | 
80 | [N-]=[N+]=NC1CCCCC1NC(=O)c1cc([N+](=O)[O-])cc([N+](=O)[O-])c1 (stereo not drawn) | inactive | 
81 | COC(=O)C1(C)COP(=O)(N2CCCCCC2)OC1 (stereo not drawn) | inactive | 
82 | CC(C)c1ccc(OP(=O)(Nc2ccccn2)Oc2ccccc2F)cc1 (stereo not drawn) | inactive: -45.7% | 
83 | ClCCSc1nnc(-c2cccnc2)o1 | inactive | 
84 | CC(C)NC(=O)NP(=O)(Oc1ccccc1)Oc1ccccc1 | inactive: -51.6% | 
85 | CCN(CC)C(=S)SC(NC=O)C(Cl)(Cl)Cl (stereo not drawn) |  | inactive [at 57.5 µM]
86 | O=C(OC1CN2CCC1CC2)c1cccc2[nH]cnc12 (stereo not drawn) | inactive | 
87 | O=[N+]([O-])c1cc([N+](=O)[O-])c(-c2ccn[nH]2)s1 | inactive | 
88 | Cc1cc(=O)[nH]c(N[N+](=O)[O-])n1 | inactive: -19.3% | 

Row | Compound | activation | outcome
89 | Cc1c2c(nc3ccccc13)SC(C(Cl)Cl)C2 (stereo not drawn) | inactive | 
90 | COc1ccc2nc(NP(=O)(c3ccccc3)c3ccccc3)sc2c1 | inactive: -0.732% | 
91 | COc1cc(I)ccc1[As](=O)(O)O | inactive: -5.82% | 
92 | O=P1(N(CCCl)CCCl)Nc2ccccc2N1 | inactive: -31% | 
93 | O=P1(N(CCCl)CCCl)OCCCN1CCCl (stereo not drawn) | inactive: 9.02% | 
94 | COc1ccc(N/C(=N/P(=O)(N2CCOCC2)N2CCOCC2)N2CCOCC2)cc1 | inactive: 20.1% | 
95 | O=[N+]([O-])c1cc(Oc2ccc([N+](=O)[O-])cc2C(F)(F)F)cc([N+](=O)[O-])c1 | inactive: -12.6% | 
96 | O=[As](O)(O)c1cccnc1 | inactive | 
97 | COc1cc(C(=O)NCC2(N3CCOCC3)CCCCC2)cc(Cl)c1OC(C)C | inactive | 
98 | CS(=O)(=O)c1ccc(Cl)c(NC(=O)COC(=O)C(O)(c2ccccc2)c2ccccc2)c1 | inactive: -13.6% | 
99 | O=C(OC1CN2CCC1CC2)c1ccc(Cl)cc1 (stereo not drawn) | inactive | 
100 | Cc1cccc(OCC(=O)OC2CN3CCC2CC3)c1 (stereo not drawn) | inactive: -24.3% | 
101 | O=[As](O)(c1cccc(O)c1)c1cccc(O)c1 | inactive | 
102 | CCCOP(=S)(Nc1nc(N)cc(=O)[nH]1)OCCC | inactive | 
103 | Cc1ccc(NCCc2c([N+](=O)[O-])cc([N+](=O)[O-])cc2[N+](=O)[O-])cc1 | inactive: -0.424% | 
104 | Nc1cccc2c([As](=O)(O)O)cccc12 | inactive | 
105 | COc1cc(C2NCCC3(OCCO3)C2(C)C)cc(OC)c1OC (stereo not drawn) | inactive | 
106 | CCOP(=O)(Nc1cccc2ccccc12)OCC | inactive | 
107 | CS(=O)(=O)c1cc([N+](=O)[O-])c2no[n+]([O-])c2c1 | inactive | 
108 | CCOP1(=S)c2c(C)nn(CCC#N)c2N=C(c2ccccc2F)N1C (stereo not drawn) | inactive: 20.6% [at 57.5 µM] | 
